SR-BI DiI inh: mouse SR-BI HDL lipid transfer inhibition. Q61009. ldlA[mSR-BI] CHO cells, DiI-HDL uptake fluorescence, 3 h. inhibition, % at 12.5 µM. hit rate 0.96% among 320,000. AID 488896;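 active = mean replicate inhibition of at least 70% and a set share of replicates each scoring 70 or more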;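 note: 0% = median of neutral control wells and 100% = median of positive control wells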
SR-BI DiI-HDL act: SR-BI HDL lipid transfer activation. activation, % at 12.5 µM. hit rate 0.096% among 320,000. CHO ldlA[mSR-BI] cells, DiI-HDL uptake fluorescence, 3 h; 100 = double the neutral-control signal;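 active = mean replicate activation of at least 60% and every replicate at or above 60%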;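 note: 0% = median plate neutral-control signal and 100% = twice that signal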
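Material – SR-BI-overexpressing, LDLR-lacking CHO cells · Medium – BSA-supplemented, HEPES-buffered Ham's F12, pH 7.4 · Doses – single concentration · Times – compound with DiI-HDL co-incubation, 3 h at 37 °C · Measured by – bottom-read fluorescence, 550/595 nm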
GSIS activator: primary screen for activators of insulin secretion dependent on glucose, INS-1E cells, GLuc reporter luminescence. activation, % at 16.6 µM. INS-1E GLuc reporter insulin secretion, 2-3 h. hit rate 0.61% among 370,000;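 active = lowest replicate activation of at least 40%, so every replicate reaches that level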;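 note: 0% = median of neutral control wells and 100% = median of IBMX positive control wells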
Yeast UUG start: modulators of yeast start codon fidelity, primary screen, whole organism, S. cerevisiae, single point, plate reader | S. cerevisiae UUG-firefly luciferase reporter, luminescence/redox ratio | activity score, % at 18.7 µM | hit rate 0.13% among 350,000;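 active = replicate mean at a twofold rise or more, about +100% in these data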;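 note: firefly luciferase made from a UUG start codon reports start codon fidelity; reporter light over untreated wells divided by growth signal over untreated wells; some hits fall short of that in this replicate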
* marks the source's active call; other numbers are inactive results; i = inactive; . = not tested or not shown. An excerpt weighted towards active compounds, which were near 1.3% of everything screened.

| Molecule | SR-BI DiI-HDL act | Yeast UUG start | SR-BI DiI inh | GSIS activator |
| --- | --- | --- | --- | --- |
| CCS(=O)(=O)c1nc(S(=O)(=O)c2ccc(C)cc2)c(N2CCCC2)s1 | -10 | -1 | 10 | 6 |
| COc1ccc(-c2nc(-c3ccc(NC(=O)c4ccc(Br)o4)cc3)no2)cc1OC | -79 | . | 79* | . |
| COc1cccc(-c2nc(-c3ccc(NC(=O)Cc4ccccc4OC)cc3)no2)c1 | -78 | . | 78* | . |
| COc1cc(-c2nc(-c3ccc(NC(=O)c4ccc(Br)o4)cc3)no2)cc(OC)c1OC | -42 | -1 | 42 | . |
| CCC(=O)Nc1ccc2c(c1)C(=O)N(C)[C@@H]1CC[C@H](CC(=O)N[C@@H](C)c3ccccc3)O[C@H]1CO2 | . | 5 | . | 18 |
| COc1cc(C(=O)OCc2cc(=O)c(O)co2)ccc1OC(F)F | . | . | . | 52* |
| COc1cc(C(=O)OCc2cc(=O)oc3c(C)c(C)ccc23)ccc1OC(F)F | . | -12 | . | 2 |
| COc1ccc2[nH]c3c(NCCCN4CCCC4=O)ncnc3c2c1 | 3 | -14 | -3 | 48* |
| CCOC(=O)c1[nH]c2cc(OC)c(OC)cc2c1NC(=O)c1ccc2c(c1)OCO2 | -39 | . | 39 | 69* |
| CCOC(=O)c1[nH]c2ccc(F)cc2c1NC(=O)c1cc(OC)c(OC)c(OC)c1 | -71 | -10 | 71* | . |
| CCOC(=O)c1[nH]c2ccc(F)cc2c1NC(=O)c1ccccc1C(=O)O | 1 | 11 | -1 | -12 |
| O=C(N/N=C\c1ccc(CNS(=O)(=O)c2ccc(Cl)cc2)o1)C(=O)Nc1ccc(Oc2ccccc2)cc1 | -68 | . | 68 | 58* |
| C=C1C(=O)c2sccc2C(c2ccc(OC)c(OC)c2)C1COC(C)=O (stereo unspecified) | 0 | . | 0 | 115* |
| COC(=O)COc1cc(OCC(=O)OC)c2c(-c3ccccc3)cc(=O)oc2c1 | 15 | -6 | -15 | 64* |
| CC(=O)COc1cc(C)cc2oc(=O)cc(-c3ccccc3)c12 | 0 | . | 0 | -5 |
| CC(C)CC#Cc1ccc2c(c1)O[C@@H](CN(C)C(=O)Nc1ccccc1)[C@@H](C)CN([C@@H](C)CO)S2(=O)=O | . | -3 | . | -20 |
| C/C(CCC1CC(C)OC1=O)=N\NC(N)=S (stereo unspecified) | -71 | -23 | 71* | 37 |
| C/C(CC1CC(C)(C)OC1=O)=N\NC(N)=S (stereo unspecified) | . | -17 | . | . |
| C/C(CCC1CC(C)(C)OC1=O)=N\NC(N)=S (stereo unspecified) | -72 | . | 72* | 16 |
| Cn1c(=O)n(CCc2ccccc2)c(=O)c2c1nc1n2CCCN1CCc1ccccc1 | 506* | 8 | i | 3 |
| CCCn1c(=O)c2c(nc3n2CCCN3CCc2ccccc2)n(C)c1=O | -9 | 10 | 9 | 16 |
| CCCNC(=O)C[C@H]1C[C@H]2c3cc(NC(=O)NC4CCCC4)ccc3O[C@H]2[C@@H](CO)O1 | . | -10 | . | -1 |
| COc1cccc(S(=O)(=O)Nc2ccc3c(c2)OC[C@@H](C)NC[C@H](C)[C@@H](OC)CN(C)C3=O)c1 | . | 7 | . | 4 |
| Cc1cc(NC(=O)/C=C/c2ccc(Cl)cc2)no1 | 20 | . | -20 | 50* |

A different layout for part of the listing above.
Every second line gives: SR-BI DiI-HDL act	Yeast UUG start	SR-BI DiI inh	GSIS activator
> C/C(CCC1CC(C)(C)OC1=O)=N\NC(N)=S (stereo unspecified)
  -72	.	72*	16
> Cn1c(=O)n(CCc2ccccc2)c(=O)c2c1nc1n2CCCN1CCc1ccccc1
  506*	8	i	3
> CCCn1c(=O)c2c(nc3n2CCCN3CCc2ccccc2)n(C)c1=O
  -9	10	9	16
> CCCNC(=O)C[C@H]1C[C@H]2c3cc(NC(=O)NC4CCCC4)ccc3O[C@H]2[C@@H](CO)O1
  .	-10	.	-1
> COc1cccc(S(=O)(=O)Nc2ccc3c(c2)OC[C@@H](C)NC[C@H](C)[C@@H](OC)CN(C)C3=O)c1
  .	7	.	4
> Cc1cc(NC(=O)/C=C/c2ccc(Cl)cc2)no1
  20	.	-20	50*

Next entries.
| Molecule | SR-BI DiI-HDL act | Yeast UUG start | SR-BI DiI inh | GSIS activator |
| --- | --- | --- | --- | --- |
| Cc1cc(C)c(NC(=O)CSc2nc3ccc(NC(=O)CSc4nnnn4-c4ccccc4)cc3s2)c(C)c1 | -77 | . | 77* | 4 |
| Cc1cc(C)c(NC(=O)CSc2nc3ccc(NC(=O)CSc4nnnn4Cc4ccccc4)cc3s2)c(C)c1 | -45 | -19 | 45 | . |
| O=C(NN(Cc1ccccc1)Cc1ccccc1)c1ccccc1 | -14 | -8 | 14 | 49* |
| CNC(=O)C[C@H]1CC[C@H]2[C@@H](COc3ccc(NC(=O)c4cccc(F)c4)cc3C(=O)N2C)O1 | . | -20 | . | 5 |
| O=C(C[C@@H]1C[C@@H]2c3cc(NS(=O)(=O)c4ccc(F)cc4)ccc3O[C@@H]2[C@H](CO)O1)NCC(F)(F)F | . | -10 | . | 10 |
| N=c1n(CCN2CCOCC2)c2ccccc2n1CC(=O)c1cccc([N+](=O)[O-])c1 | -77 | -11 | 77* | -2 |
| Cc1noc(C)c1NC(=O)N(C)C[C@H]1Oc2ccc(NC(=O)Cc3cn(C)c4ccccc34)cc2CC(=O)N([C@@H](C)CO)C[C@H]1C | . | -1 | . | 1 |
| C[n+]1c(/C=C/c2ccc(O)cc2)ccc2ccccc21 | -15 | 43 | 15 | -4 |
| Cc1cc(/C=C\c2ccc3cc(N(C)C)ccc3[n+]2C)c(C)n1-c1ccccc1 | 166* | -17 | -166 | . |
| CSCCC(NC(=O)c1ccccc1Cl)C(=O)NNC(=O)c1ccccc1O (stereo unspecified) | -47 | -18 | 47 | -10 |
| CC(Sc1ccc(Cl)cc1)C(=O)NNC(=O)c1ccccc1O (stereo unspecified) | -97 | -16 | 97* | 1 |
| O=C(C[C@@H]1CC[C@H]2[C@@H](COC[C@H](O)CN2S(=O)(=O)c2ccc(F)cc2)O1)N[C@@H]1CCN(Cc2ccccc2)C1 | . | 2 | . | 12 |
| CCOc1ccc(N(C(C)C(=O)N/N=C(\C)c2cccc(NC(=O)c3ccccc3)c2)S(C)(=O)=O)cc1 (stereo unspecified) | -78 | -25 | 78* | -28 |
| CN(C)CC(=O)N1[C@H](CO)[C@H](c2ccccc2)C12CN(C(=O)c1cccc(F)c1)C2 | . | . | . | 5 |
| CC(=O)NCCNC(=O)CNC(=O)c1ccc(Cl)cc1 | 28 | . | -28 | 47* |
| O=C(CNC(=O)c1ccc(Cl)cc1)NCC(F)(F)F | 38 | . | -38 | 28 |
| C[C@H](CO)N1C[C@H](C)[C@@H](CN(C)S(=O)(=O)c2cn(C)cn2)Oc2c(NC(=O)CCC(F)(F)F)cccc2C1=O | . | . | . | 27 |
| CC(=O)Nc1c(C(=O)C2CC2)oc2ccccc12 | 0 | 4 | 0 | 50* |
| O=C(Nc1ncc(Cc2cc(Cl)ccc2Cl)s1)c1ccc([N+](=O)[O-])cc1 | -82 | . | 82* | -21 |
| CCCN1[C@@H]2Cn3c(ccc(/C=C/c4ccccc4)c3=O)[C@H]1[C@@H](C(=O)NCC1CC1)[C@@H]2CO | . | . | . | -7 |
| COc1ccc(/C=N/NC(=O)c2ccccc2Cl)cc1CSc1nc2ccccc2s1 | -26 | -22 | 26 | . |
| COc1ccc(/C=N/NC(=O)CCSc2nc3ccccc3s2)cc1OC | -30 | -20 | 30 | 54* |
| O=C(CCSc1nc2ccccc2s1)N/N=C/c1c(O)ccc2ccccc12 | -105 | -18 | 105* | 8 |
| CO[C@H]1CN(C)C(=O)c2cc(NC(=O)Nc3cccc(F)c3)ccc2OC[C@H](C)N(C)C[C@H]1C | . | 25 | . | -19 |
| C[C@@H]1CN([C@@H](C)CO)C(=O)Cc2cc(NS(=O)(=O)c3ccc(F)cc3)ccc2O[C@@H]1CN(C)C(=O)Nc1cccc2ccccc12 | . | 3 | . | -3 |
| Cc1cc(C)cc(OCCCN2CCC(C(O)(c3ccccc3)c3ccccc3)CC2)c1 | . | . | . | 182* |
| Cc1cc(OCCCN2CCC(C(O)(c3ccccc3)c3ccccc3)CC2)ccc1Br | . | . | . | 477* |
| OC(c1ccccc1)(c1ccccc1)C1CCN(CCCOc2cccc(F)c2)CC1 | . | . | . | -5 |
| CS(=O)(=O)c1ccc(OCCCN2CCC(C(O)(c3ccccc3)c3ccccc3)CC2)cc1 | . | . | . | -39 |
